# scFv variants of Ab-14 (light chain) against a SARS-CoV-2 spike peptide

The target is the same throughout: PDVDLGDISGINAS, from the HR2 region of SARS-CoV-2 spike.

Each scFv is VH, the linker GGGGSGGGGSGGGGS, VL, as in the parent Ab-14, and differs from it in the CDRs of the light chain only.
VH: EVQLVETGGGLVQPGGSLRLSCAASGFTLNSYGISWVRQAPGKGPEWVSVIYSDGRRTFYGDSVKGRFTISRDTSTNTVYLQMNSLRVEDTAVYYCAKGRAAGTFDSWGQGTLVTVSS
VL: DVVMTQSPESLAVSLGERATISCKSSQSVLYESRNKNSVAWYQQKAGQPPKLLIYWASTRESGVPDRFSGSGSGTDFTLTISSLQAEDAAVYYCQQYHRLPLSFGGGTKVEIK

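The starting antibody came from a phage panning campaign against this peptide. The variants were designed computationally from a first round of random CDR variants and then made and measured. Group labels follow the data file (Ctrl: baseline library sampled from a position-specific scoring matrix, with some repeated check sequences; En: ensemble of fine-tuned language models; GP: Gaussian process model; HC: hill climbing; Gen: genetic algorithm; Gibbs: Gibbs sampling; a sequence that several methods proposed may carry one label only). In AlphaSeq, yeast of one mating type display the scFv and yeast of the other type display the target. Mating (16 h, 30 °C) was followed by selection of diploids and sequencing of their barcodes. The ratio of observed to expected reads was calibrated, replicate by replicate, on BCL2-family standards whose Kd was known from biolayer interferometry. Mating was done six times.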

The parent's light chain CDRs are KSSQSVLYESRNKNSVA, WASTRES, QQYHRLPLS; each variant's own CDRs replace them letter for letter. Values are log10 of the apparent Kd in nM; lower means stronger binding. Replicates are averaged; those with no signal do not enter the mean. A pair that was not seen in any replicate is written "nd"; this usually means weak binding, but a binder can also be missed. Nonspecific signal, from three strains lacking the peptide, appeared in 4% of pairings of all light chain designs, centred on 2.64 (5% of these signals below 1.59); values are not corrected for it.

| CDR-L1 | CDR-L2 | CDR-L3 | group | mean, log10 nM | replicates with signal |
|---|---|---|---|---|---|
| KSLQSQEYESRNKNSVA | HASTRED | QQYHKLPLS | GP_HC | 0.39 | 6/6 |
| KLRQSVLYESRNKNSVA | WASTRES | QQYHRLPLS | Ctrl | nd | 0/6 |
| KFSQSWLYESRNKNSVA | NGSTRES | QQYHRLPLS | GP_Gen | 0.23 | 6/6 |
| KLSMSVLYEDRHKNSVA | GASKRFS | QQYHRLPLS | GP_Gibbs | 1.41 | 6/6 |
| KISMSYRYESQEKNSIA | EMSTREE | QSYHRLPLS | En_HC | 1.24 | 6/6 |
| MLENKPTSFNNNKDAIA | DDSASTS | QQYDRLPLS | En_Gibbs | nd | 0/6 |
| KLSQSEPYESRNKNSVA | NASTRCS | QQYHRLPLS | GP_Gen | -0.10 | 6/6 |
| KSSQSSLAESRNKNSVA | WASTRES | QQAMILPLS | Ctrl | nd | 0/6 |
| KSSQSVGYESRDRNCVA | WASTRES | QQYHRLPCS | Ctrl | nd | 0/6 |
| KIEWYPMENRGTIQAIA | EASTIYN | QQYMHLPLS | En_Gibbs | nd | 0/6 |
| KSSQSVLYQSSNKNSVA | WASTRES | QQYMRLPLS | Ctrl | 0.83 | 3/6 |
| TLMMQPTEQRDNKHAVA | DNNQRDR | QQYHRLPLS | En_Gibbs | 1.38 | 6/6 |
| KFSQSVAYESRTKNSVA | EASTRES | QQYHRLPLS | GP_HC | 0.39 | 6/6 |
| HMSMLTLGGLKNRNSVA | QMTTREN | QQYDRLPLA | En_Gen | nd | 0/6 |
| KLQQQSLYWSRNKNSVA | EASTRES | QQYHRLPLS | GP_Gibbs | 0.02 | 6/6 |
| KSKQSVLYESRDKNSVA | WASTRES | QQYHRLPLS | Ctrl | 0.90 | 6/6 |
| KLMGQGDHSIAHANSIA | NVDNVDM | QQYAHLPLS | En_Gibbs | 1.91 | 5/6 |
| ASDHTEGSGKNADANVA | GDEQRAY | QQYHHLPLS | En_Gibbs | 0.94 | 6/6 |
| KVSQSVLYESRNFNSVA | NASTRES | QQYHRLPLS | GP_Gen | 0.96 | 6/6 |
| KQSQSVLGESRNKNSVA | DASTRES | QQYHRLPLS | GP_HC | nd | 0/6 |
| KFQQSQLYESRQKNSVA | NASCRCS | QQYHRLPLS | GP_Gibbs | 0.57 | 6/6 |
| KLQQSDLYESRNKNSVA | NASTRCS | QQYHRLPLS | GP_Gen | 0.33 | 6/6 |
| KVSQSVLYEQRNKNSVA | EASTRMS | QQYHRLPLS | GP_Gen | -0.10 | 6/6 |
| KVSQSVLYESRMKNSVA | DASTRCS | QQYHRLPLC | GP_HC | -0.03 | 6/6 |

Continued, with the values leading:

| mean, log10 nM | replicates with signal | CDR-L1 | CDR-L2 | CDR-L3 | group |
|---|---|---|---|---|---|
| nd | 0/6 | KSSSSVHYESRNKNSVA | WASTRES | QQYHRLPLS | Ctrl |
| 0.00 | 6/6 | KESQSYLYESRNKNSVA | GASTRES | QQYHRLPLS | GP_HC |
| 1.24 | 6/6 | KISMLTNQTFESGNNVA | EMATREN | QQYHRLPLS | En_Gen |
| 0.63 | 6/6 | TISQMFLGESRYRNSVA | QASTRES | QSYDRLPLS | En_HC |
| 0.32 | 6/6 | KLSQSVLYEERNCNSVA | NASQRES | QQYHRLPLS | GP_Gen |
| 0.64 | 6/6 | KSSQSVLMESRNANSVA | EASTRES | QQYHRLPLS | GP_HC |
| 1.56 | 6/6 | SFHEINFEGLATTANVA | NASYLFE | QQYFRLPLT | En_Gibbs |
| 1.13 | 6/6 | MVNSIMDHLSKQTNNVA | EMTTREE | QQYDRLPLS | En_Gen |
| 0.99 | 6/6 | MISQLMQMGQFAINSVA | QASIRNE | QQYDRLPLI | En_Gen |
| -0.25 | 6/6 | KVSQSYLYESRNKNSVA | NASTRLS | QQYHRLPLS | GP_Gen |
| 0.66 | 6/6 | KVAQGIYEPKRHSHNIA | EASHVCD | QQYARLPLE | En_Gibbs |
| 0.35 | 6/6 | KVSQSVLYESRNKNSVA | EASTRES | QDYHRLPLS | GP_Gen |
| 0.39 | 6/6 | TLSDLMHMESRNVNNVA | DLVKRES | QQYHRLPLS | En_HC |
| 0.28 | 6/6 | KLMQGWLYESRNKNSVA | NASMRLE | QQYHRLPLS | GP_Gibbs |
| 2.10 | 1/6 | IVSQLMLWGYTAKNSIA | EAQTRVN | QQYERLPLF | En_Gen |
| 2.31 | 4/6 | KSSQSDLYESRNKNSVA | WASTRCS | QQYHRLPLS | Ctrl |
| 0.46 | 6/6 | ALTAHRQVAIETKNSIA | NAVMRYQ | QQYAQLPLM | En_Gibbs |
| 0.22 | 6/6 | KISMTVENQLKNRNSVA | ELVTRMA | QQYARLPLS | En_Gen |
| -0.30 | 6/6 | KVSQSNLYESRNKNAVA | NASTRES | QQYHRLPLS | GP_Gen |
| 2.31 | 1/6 | KSSQSVLYESRNKNSVA | WASTRVS | QIHHRLPLS | Ctrl |
| 0.29 | 6/6 | KSQQSQLYESRNFNSVA | HASTRED | QQYHRLPLS | GP_HC |
| -0.15 | 6/6 | LMNERMMMGENQQHNIA | NAATLVK | QQYHRLPLG | En_Gibbs |
| -0.04 | 6/6 | KMQNSNGYESRNKNAVA | QASTRES | QQYHRLPLS | GP_Gibbs |
| 0.34 | 6/6 | VFQQQWDGHTDTHNSVA | NVDHKME | QQYYRLPLL | En_Gibbs |
| 0.28 | 6/6 | KLQQSMLYESRNDNSVA | DASMRES | QQYHRLPLF | GP_Gibbs |

Excerpt, the first 7 entries:

CDR-L1,CDR-L2,CDR-L3,group,"mean, log10 nM",replicates with signal
KSLQSQEYESRNKNSVA,HASTRED,QQYHKLPLS,GP_HC,0.39,6/6
KLRQSVLYESRNKNSVA,WASTRES,QQYHRLPLS,Ctrl,nd,0/6
KFSQSWLYESRNKNSVA,NGSTRES,QQYHRLPLS,GP_Gen,0.23,6/6
KLSMSVLYEDRHKNSVA,GASKRFS,QQYHRLPLS,GP_Gibbs,1.41,6/6
KISMSYRYESQEKNSIA,EMSTREE,QSYHRLPLS,En_HC,1.24,6/6
MLENKPTSFNNNKDAIA,DDSASTS,QQYDRLPLS,En_Gibbs,nd,0/6
KLSQSEPYESRNKNSVA,NASTRCS,QQYHRLPLS,GP_Gen,-0.10,6/6

A sequence measured in both rounds can read differently, since the two assays cover different ranges. In the paper, a design with two or fewer of six values counts as a poor binder.

The measurements come from Li et al. 2023 (doi:10.1038/s41467-023-39022-2) through the FLAb antibody collection.